Values of other authors as cited in patent US9415039B2, “Disubstituted 3,4-diamino-3-cyclobutene-1,2-dione compounds for use in the treatment of chemokine-mediated diseases” (GALDERMA RESEARCH & DEVELOPMENT, priority 2011, dated 2016).

Amino acid sequences for entries named in this document (tags omitted).
UniProt P25025, whole entry: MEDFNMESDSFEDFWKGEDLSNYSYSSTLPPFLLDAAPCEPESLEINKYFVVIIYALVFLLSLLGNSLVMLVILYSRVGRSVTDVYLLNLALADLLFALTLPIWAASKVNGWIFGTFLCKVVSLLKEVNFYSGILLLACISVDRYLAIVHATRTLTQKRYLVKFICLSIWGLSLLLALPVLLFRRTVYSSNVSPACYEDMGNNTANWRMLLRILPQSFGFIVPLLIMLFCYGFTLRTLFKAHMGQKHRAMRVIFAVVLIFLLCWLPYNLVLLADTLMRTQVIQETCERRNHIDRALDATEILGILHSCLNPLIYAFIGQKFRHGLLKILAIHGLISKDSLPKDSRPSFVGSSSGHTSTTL

Biological target: T1, CXCR2 (Homo sapiens, UniProt P25025)
T1 construct: β-galactosidase enzyme-complementation fragment (PathHunter system); host or cells: HEK293
Conditions: cited from earlier work

In the case of `CC[C@@H](Nc1c(Nc2cccc(C(=O)N(C)C)c2O)c(=O)c1=O)c1ccc(C)o1` [SCH-527123], the “type of dissociation (in words)” value (as described in JPET 322:477-485, 2007) is given as “pseudo-irreversible dissociation” and the dissociation time (receptors of CXCR1 and CXCR2 type, from JPET 322:477-485, 2007) is given as “about 22 h”.
